Data: patent publication US20140086881A1, “GOOD HEALTHY CELLS FOUND IN PROTEINS, THEIR APPLICATIONS, AND PROCESS OF MAKING A MEDIUM TO HARVEST THE CELLS” (priority 2012, published 2014)

Legend:
2a replicon cells (Huh7) = conditions: at 320 uM
1a replicon cells (Huh7) = conditions: at 320 Um
1b replicon cells = conditions: at 320 uM

NC(=O)c1ncn([C@@H]2O[C@H](CO)[C@@H](O)[C@H]2O)n1 [Ribavirin]
cytotoxicity % inh (CC50 column) 2a (2a replicon cells (Huh7)): 44.8% inh at
cytotoxicity % inh (CC50 column) 1a (1a replicon cells (Huh7)): 47.4% inh at
cytotoxicity % inh (CC50 column) 1b (1b replicon cells): 61.8% inh at
